Literature values, collected in PMC3463759 (Clinical cancer research : an official journal of the …, 2012).

System: ovarian cancer cell lines
Conditions: cited from earlier work

For Cc1nc(Nc2ncc(C(=O)Nc3c(C)cccc3Cl)s2)cc(N2CCN(CCO)CC2)n1 [dasatinib, N-(2-chloro-6-methyl-phenyl)-2-(6-(4-(2-hydroxyethyl)-piperazin-1-yl)-2-methylpyrimidin-4-ylamino)thiazole-5-carboxamide], the “activity of the combination” value is listed as “synergistic and additive activity”.
